# scFv variants of Ab-14 (heavy chain) against a SARS-CoV-2 spike peptide

The target is the same throughout: PDVDLGDISGINAS, from the HR2 region of SARS-CoV-2 spike.

Ab-14 is the parent antibody, in scFv form: VH, then a (GGGGS)3 linker, then VL. The light chain is unchanged in all variants.
VH: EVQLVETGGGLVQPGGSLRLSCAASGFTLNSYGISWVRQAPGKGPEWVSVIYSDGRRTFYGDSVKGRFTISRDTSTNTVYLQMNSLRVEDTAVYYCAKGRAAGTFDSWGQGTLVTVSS
VL: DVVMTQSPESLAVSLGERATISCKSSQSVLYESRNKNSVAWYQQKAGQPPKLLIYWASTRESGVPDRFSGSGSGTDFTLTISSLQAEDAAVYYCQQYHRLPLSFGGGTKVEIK

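The parent was found by panning a naive human phage display library on the peptide. These sequences belong to a second round, designed from the earlier measurements on random variants of the parent. Several design methods are mixed in this list. In AlphaSeq, yeast of one mating type display the scFv and yeast of the other type display the target. After mating in shaken culture at 30 °C for 16 h, diploids were selected and their barcode pairs sequenced. Each replicate has its own calibration line, from reference interactions of the BCL2 family. Mating was done six times.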

Each variant is given by its three heavy chain CDRs, as the data file delimits them; those of the parent are GFTLNSYGIS, VIYSDGRRTFYGDSVK, GRAAGTFDS. This list holds designs with at most six substitutions. Kd is apparent (estimated from mating counts) and averaged on the log scale over replicates with a signal. Smaller is tighter. A pair that was not seen in any replicate is written "nd"; this usually means weak binding, but a binder can also be missed. Three control strains display no target. For all heavy chain designs, 1% of the pairings with them gave a signal, with a median of 120 nM and one signal in twenty below 7.0 nM, so weak values seen in few replicates may be background. Values of this round are not directly comparable with the first-round values of the same sequences. The authors averaged sequences with at least three values out of six and counted those with two or fewer as poor binders. Of ten entries with the parent sequence, four were seen in most replicates (averages 2.2 nM to 240 nM), three in one and three in none, so single entries are noisy.

For GFTLNDYGIS / VPYSDGRRTFYGDSVK / GRAALTFIS, the assay gave nd (0 of 6 replicates). For GFELNSYGIS / VIYADMRRTFYGDSVK / GRAAGTFTS, the assay gave nd (0 of 6 replicates). For GFYLNSYGIS / VIYSDGRRTFYGDSVK / GQTAGTFDS, the assay gave 20 nM (6 of 6 replicates). Variant GFELNSYGIS / VIYADGRRTFYGDQVK / GKAAGTFDS showed 700 pM (6 of 6 replicates). Variant GFDLNSYGIS / VIYSDGRRTFYGDHVK / GKTAGTFDS gave 2.4 nM (6 of 6 replicates).

With GFNLNSYGIS / VIYSDGYRTFYGDSVK / AREMFTFDS the result was 120 nM (1 of 6 replicates). For GFNLNEYGIS / VIYADGRRTFYSDSVK / GEIAGTFDS, the assay gave 270 pM (6 of 6 replicates). Variant GFDLNSYGIS / VIYSDGRRTFYGDSVK / GRIAGTFES gave 2.7 nM (6 of 6 replicates). Variant GFTINSGGIS / VIYSDGKRTFYGDSVK / GRAAGTFDS showed nd (0 of 6 replicates). For GFELNSYGIS / VIYSDGRRTFYADSVK / GRVAGTFDS, the assay gave 2.4 nM (6 of 6 replicates).

With GFDLNEYGIS / VIYADGRRTFYTDSVK / GQNAGTFDS the result was 190 pM (6 of 6 replicates). Variant GFSLNSYGIS / VIYSDGRRTFYGDSVK / GRTAGTFDK showed 7.9 nM (6 of 6 replicates). For KFDLNSYGIS / VIYSDGKRTFYKDSVK / GRTAGTFDS, the assay gave 60 nM (6 of 6 replicates). For GFELESYGIS / VIYSDGRRTFYGDSVK / GRAAGTFDS, the assay gave 25 nM (5 of 6 replicates). For GFDLNEYGIS / VIYADGRRTFYSDSVK / GANAGTFDS, the assay gave 470 pM (6 of 6 replicates).

Variant GFDLNSYGIS / VIYSDGRRTFYCDSVK / GRTAGTFDT gave 3.2 nM (6 of 6 replicates). Variant GFTLNSYGIS / VIYSDGRRTFYSDSVK / GQAAGIFDT gave nd (0 of 6 replicates). For GFTLNEYGIS / VIYSDGSRTFYTDSVK / GRQAGTFDS, the assay gave 47 nM (6 of 6 replicates). Variant GFELNSYGIS / VIYSDGRRTFYGDSVK / GRLAGTFSS showed 100 nM (6 of 6 replicates). With GFTLNEYGIS / VIYSDGRRTFYTDSVK / GRTAGTFDS the result was 850 pM (6 of 6 replicates).

Variant GFLLNDYGIS / VIYSDGRRTFYKDSVK / GRAAGTFDS showed 120 pM (3 of 6 replicates). Variant GFSLNEYGIS / VIYSDGRRTFYGDSVK / GRAAGTFIS showed nd (0 of 6 replicates). With GFTLNSYGIS / VIYADGRRTFYEDSVK / GRAAGTNKS the result was nd (0 of 6 replicates). For GFTLNSYGIS / VIYADGRRTIYGDSVK / GSAAGTFDS, the assay gave 19 nM (5 of 6 replicates). Variant GFTLNEYGIS / VIYSDGRRTFYGDSVK / GRAAWTFDQ showed nd (0 of 6 replicates).

With GFTLNEYGIS / VIYSDGRRTFYGDSVK / GRAALTFDC the result was nd (0 of 6 replicates). For GFTLNEYGIS / VIYSDGYRTFYGDSVK / GRAAGTFDQ, the assay gave 25 nM (6 of 6 replicates). With HFSLNSYGIS / VIYSDGRRTFYADSVK / GQAAGTFDS the result was 12 nM (6 of 6 replicates). With GFSLNSYGIS / VIYSDGRRTFYHDSVK / GQAAGTFDS the result was nd (0 of 6 replicates). Variant GFTLDSWGIS / VIYSDGRRTFYGDSVK / GRAAGTALS gave nd (0 of 6 replicates).

With GFDLNSYGIS / VIYSDGRRTFYDDRVK / GKAAGTFDS the result was 7.7 nM (6 of 6 replicates). Variant GFTLTSYGIS / VIYADGRRTFYGDSVK / GRAAGTFKS showed nd (0 of 6 replicates). With GFTLDSYGIS / VIYSDGRRTFYDDSVK / GQVAGTFDS the result was 490 pM (6 of 6 replicates). Variant GFSLNNYGIS / VIYSDGRRTFYIDSVK / GKAAGTFDS gave 5.6 nM (6 of 6 replicates). With GFTLQSYGIS / VIYSDGRRTAYSDSVK / GRAAGTFDS the result was 7.3 nM (6 of 6 replicates).

Excerpt, the first 5 entries:

Variant GFTLNDYGIS / VPYSDGRRTFYGDSVK / GRAALTFIS showed nd (0 of 6 replicates).
Variant GFELNSYGIS / VIYADMRRTFYGDSVK / GRAAGTFTS showed nd (0 of 6 replicates).
Variant GFYLNSYGIS / VIYSDGRRTFYGDSVK / GQTAGTFDS showed 20 nM (6 of 6 replicates).
Variant GFELNSYGIS / VIYADGRRTFYGDQVK / GKAAGTFDS showed 700 pM (6 of 6 replicates).
Variant GFDLNSYGIS / VIYSDGRRTFYGDHVK / GKTAGTFDS showed 2.4 nM (6 of 6 replicates).

The measurements come from Li et al. 2023 (doi:10.1038/s41467-023-39022-2) through the FLAb antibody collection.